The target of assay [1] is α-amylase (Sus scrofa, UniProt P00690). The assay can be described thus: In vitro alpha-amylase inhibition (starch/DNS method). To be noted: read-out: Alpha-Amylase IC50 (µM ± SEM).
Assay [2] concerns the target crude intestinal α-glucosidase. The assay can be described thus: In vitro alpha-glucosidase inhibition (p-nitrophenyl-α-D-glucopyranoside). It is filed as biochemical. To be noted: read-out: Alpha-Glucosidase IC50 (µM ± SEM).

Sequences of proteins named here, by UniProt entry; tags and fusion partners are left off. Residues count along the entry.
UniProt P00690, 16-511 limits assumed: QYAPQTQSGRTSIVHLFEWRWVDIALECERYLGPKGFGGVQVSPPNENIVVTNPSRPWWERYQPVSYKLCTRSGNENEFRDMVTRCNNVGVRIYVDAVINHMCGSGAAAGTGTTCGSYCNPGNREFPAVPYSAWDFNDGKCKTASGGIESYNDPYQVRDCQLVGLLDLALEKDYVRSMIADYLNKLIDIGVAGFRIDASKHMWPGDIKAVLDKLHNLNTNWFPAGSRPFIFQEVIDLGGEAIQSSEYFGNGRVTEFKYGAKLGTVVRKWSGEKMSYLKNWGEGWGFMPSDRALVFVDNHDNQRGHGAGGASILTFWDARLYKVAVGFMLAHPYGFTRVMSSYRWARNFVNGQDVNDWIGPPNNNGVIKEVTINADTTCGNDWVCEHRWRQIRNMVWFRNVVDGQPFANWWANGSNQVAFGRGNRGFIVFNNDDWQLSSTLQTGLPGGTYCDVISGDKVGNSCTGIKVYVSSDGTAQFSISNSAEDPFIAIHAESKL

Structures are written as SMILES.

One may read the IC50 as the point on the concentration scale where inhibition reaches its midpoint. For the compound `O=C1N/C(=N/c2nccs2)S/C1=C\c1ccc2cc[nH]c2c1Cl`, the IC50 in assay [1] is 10.7 µM; in assay [2], 11.5 µM.

On to `O=C1N/C(=N/c2nccs2)S/C1=C\c1cc2[nH]ccc2cc1[N+](=O)[O-]`, for which the figures for the IC50 in assay [1] and in assay [2] were 4.7 µM and 5.8 µM, respectively.

As for `O=C1N/C(=N/c2nccs2)S/C1=C\c1cc([N+](=O)[O-])c2cc[nH]c2c1`, the IC50 in assay [1] stood at 5.6 µM; in assay [2], 6.2 µM.
